The entries are a selection whose mix differs from that of the whole data set. Some salts and complexes are drawn in separate pieces, as the source files them; their charges need not balance. The source made the active and inactive calls. No stated cut-off is given here; in the data, active means enhancement above about 30%; inactive means the rest.

The chains behind the UniProt entries cited, without tags or fusion partners.
UniProt P34981, whole entry: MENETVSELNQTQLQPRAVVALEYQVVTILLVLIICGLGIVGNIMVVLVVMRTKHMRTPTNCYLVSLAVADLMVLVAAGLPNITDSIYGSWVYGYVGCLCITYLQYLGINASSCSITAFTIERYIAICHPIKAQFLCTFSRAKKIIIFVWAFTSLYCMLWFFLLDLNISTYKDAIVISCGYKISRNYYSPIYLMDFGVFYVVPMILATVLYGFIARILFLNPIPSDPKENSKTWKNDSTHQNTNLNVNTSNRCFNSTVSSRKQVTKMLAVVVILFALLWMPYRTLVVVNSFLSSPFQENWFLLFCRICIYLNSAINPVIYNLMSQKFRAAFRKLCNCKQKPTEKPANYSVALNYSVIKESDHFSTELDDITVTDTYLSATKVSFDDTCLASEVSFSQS

In the assay the target is Thyrotropin-releasing hormone receptor (Homo sapiens) (UniProt P34981). As to the kind of experiment: qHTS for Small Molecule Agonists and Allosteric Enhancers of Human TRH Receptor: Primary Screen for Enhancers. Further: 0% is about no effect. As to conditions: TRHR cells, fluo-8 calcium fluorescence, EC20 TRH enhancement; at 2 µM; active compounds read high. The source says: NIH Chemical Genomics Center [NCGC] NIH Molecular Libraries Probe Centers Network [MLPCN] MLPCN Grant: MH089816-01 Assay Submitter (PI): Marvin Gershengorn This project aims to identify small drug-like molecules that activate (agonists) the thyrotropin releasing hormone (TRH) receptor (TRHR) or enhance its TRH-stimulated activity (allosteric enhancers). TRHR, a drug-accessible cell surface receptor expressed in specific brain regions, and its ligand TRH have been implicated in several central nervous system disorders, including depression and anxiety. Small molecule TRHR agonists or allosteric enhancers that are metabolically stable and able to cross the blood-brain barrier might serve as probes to elucidate the roles of brain TRH receptors in animal models, and might be valuable as lead compounds for the development of drugs to treat patients with central nervous system disorders. Upon TRHR-Gq activation in TRHR cells, intracellular calcium is released from stores in the endoplasmic reticulum. […] This primary screen measures compound-induced enhancement of an EC20 stimulation of the receptor by its native ligand.
For the HTS assay freshly prepared cells are plated at a density of 2000/well in 3 ul of complete DMEM medium containing 10% serum in 1536-well plates and cultured over night at 37 C in a humidified incubator with 5% CO2. The next day, 2 ul of a no wash calcium dye (ABD Bioquest) was added to the cells and plates were incubated at room temperature for 1 hour. For the assay, assay plates were loaded into the FDSS kinetic plate reader. A 10 cycle (1 second/cycle) baseline measurement is taken and then the FDSS online 1536 pintool delivers 23 nl of compound library (as well as TRH controls) to the plate. The plate is measured for kinetically at 1 cycle/sec for 180 seconds and is considered to be the agonist portion of the assay (eg, compounds which activate a positive calcium response during this portion are flagged as potential agonists). Following the 180 second read, 1 ul of either an EC20 (positive modulation assay) is delivered by an onboard pipette head. Measurements are taken kinetically for an additional 180 seconds. TRHR FDSS Screening Protocol 1. Reagent, 3 uL 2000 cells/well 1536 TC treated Black plate in media containing 10% FCS 2. Time, 18 hours, 33.5C 5% CO2 (cells grown at 37C) 3. Reagent, 2 uL ABD fluo-8 Ca dye 4. Time, 30 min-1.5hrs hours, Room temp (6 plates/batch) 5. Detector, EX 480/EM 530C, FDSS 10 cycles baseline (1sec/cycle) 6. Compound, 23 nL of stock solution from library 7. Detector, EX 480/EM 530C, FDSS 230 cycles (1sec/cycle) Agonist mode 8. Compound, 1 ul EC20 of TRH made up in HEPES HBSS, 10 nM final 9. Detector, EX 480/EM 530C, FDSS 100 cycles (1sec/cycle) Potentiator mode
With `CCc1cc(C(=O)NCC2(N3CCCCC3)CCCCC2)sc1C`, the enhancement is inactive: -19.7%.
On to `O=C(OC1CN2CCC1CC2)C1c2ccccc2C=Cc2ccccc21` (stereo not given), for which the enhancement is inactive: -4.67%.
For `O=C(O)c1cccc(Nc2c([N+](=O)[O-])cc([N+](=O)[O-])cc2[N+](=O)[O-])c1`, the enhancement is inactive: -2.85%.
As for `CCOC(=O)N1CCC(Nc2ccc(C)cc2)CC1`, the enhancement was inactive: 1.47%.
The result for `N/C(=N\O)c1c(N)no[n+]1[O-]` reads inactive: -16.5%; that for `COc1ccc(C(=O)NCC2(N3CCOCC3)CCCCC2)cc1OC`, inactive: -8.62%; that for `O=C(NCC1(N2CCOCC2)CCCCC1)c1cc(Br)ccc1Cl`, inactive: 2.76%.
Consider `CN(C)C1(CNC(=O)c2cccc(C#N)c2)CCCCC1`, for which the enhancement was inactive: 0.59%.
Then `c1ccc(CN2CCC(Nc3ccccc3)CC2)cc1`, with inactive: 1.39%.
As to `CCCN1CCC(Nc2cc(OC)cc(OC)c2)CC1`, the enhancement was inactive: 1.71%.
Then `O=C(NCC1(N2CCOCC2)CCCCC1)c1ccccc1`, with inactive: -2%.
Consider `CCOC(=O)C(CC)C1=NC(C)(C)Cc2ccccc21.O=[N+]([O-])c1cc([N+](=O)[O-])c(O)c([N+](=O)[O-])c1` (stereo not given), for which the enhancement is inactive: -3.02%.
Then `O=C(NCC1(N2CCOCC2)CCCCC1)c1ccccc1[N+](=O)[O-]`, with inactive: -7.32%.
Regarding `N#Cc1ccc(C(=O)NCC2(N3CCCCC3)CCCCC2)cc1`, the enhancement was inactive: -5.81%.
Then `O=C(NCC1(N2CCOCC2)CCCCC1)c1ccc([N+](=O)[O-])cc1`, with inactive: 0.469%; and `CC(C)(C)OC(=O)N1CCC(N(C(=O)c2ccccc2)c2ccc(Cl)cc2)CC1`, with inactive: -4.76%; and `Cc1ccccc1C(=O)NCC1(N(C)C)CCCCC1`, with inactive: 1.39%.
Regarding `O=C(NCC1(N2CCCCC2)CCCCC1)c1ccco1`, the enhancement is inactive: 7.77%.
On to `CC(C)(C)c1ccc(C(=O)NCC2(N3CCOCC3)CCCCC2)cc1`, for which the enhancement is inactive: 12.8%.
For `CN(C)c1ccc(C(=O)NCC2(N3CCCCC3)CCCCC2)cc1`, the enhancement is inactive: 14.9%.
Regarding `CCN1CCC(Nc2cccc(F)c2)CC1`, the enhancement was inactive: -0.538%.
On to `Cc1ccc(C(=O)NCC2(N3CCCCC3)CCCCC2)o1`, for which the enhancement was inactive: 5.27%.
Then `Fc1ccccc1NC1CCN(Cc2ccccc2)CC1`, with inactive: 3.26%; and `CN(C)C1(CNC(=O)c2ccc(C(C)(C)C)cc2)CCCCC1`, with inactive: -2.5%.
In the case of `COc1cc(OC)cc(C(=O)NCC2(N3CCCCC3)CCCCC2)c1`, the enhancement is inactive: 5.11%.
Then `CN1CCC(Nc2ccc(Cl)cc2)CC1`, with inactive: 12.3%.
Then `CCCOc1ccc(C)cc1CN(CCCl)CCCl`, with inactive: -3.83%; and `COc1cccc(C(=O)N(c2cc(C)cc(C)c2)C2CCN(C(=O)OC(C)(C)C)CC2)c1`, with inactive: -4.38%.
Then `COc1cc(C(=O)NCC2(N3CCOCC3)CCCCC2)cc(OC)c1OC`, with inactive: 1.13%; and `COc1cc(OC)cc(C(=O)NCC2(N3CCOCC3)CCCCC2)c1`, with inactive: -0.566%; and `CCC(CO)(C(=O)OC1CN2CCC1CC2)c1ccccc1` (stereo not given), with inactive: -1.9%.
`CC(C)(C)OC(=O)N1CCC(Nc2ccccc2)CC1`: the enhancement was inactive: -3.23%.
For the compound `O=C(O)C1(Nc2ccccc2)CCN(Cc2ccccc2)CC1`, the enhancement is inactive: -1.58%.
Take `CCCOc1ccc(C(=O)NCC2(N(C)C)CCCCC2)cc1`: the enhancement is inactive: -6.17%.
The result for `CCOc1ncccc1C(=O)NCC1(N2CCOCC2)CCCCC1` reads inactive: 6.85%; that for `CN1CCC(Nc2ccc(F)c(Cl)c2)CC1`, inactive: -4.59%; that for `N#CC1(Nc2ccccc2)CCN(Cc2ccccc2)CC1`, inactive: -3.46%.
On to `O=C(NCC1(N2CCCCC2)CCCCC1)c1ccc(Cl)s1`, for which the enhancement is inactive: 3.3%.
On to `O=C(OC1CN2CCC1CC2)C1c2ccccc2Oc2ccccc21` (stereo not given), for which the enhancement is inactive: 22.7%.
Consider `COc1ccc(Cl)cc1C(=O)NCC1(N2CCOCC2)CCCCC1`, for which the enhancement was inactive: 18.7%.
Regarding `CCOC(=O)N1CCC(Nc2ccc(OC)cc2)CC1`, the enhancement was inactive: 2.48%.
Take `O=C(NCC1(N2CCCCC2)CCCCC1)c1ccc(Cl)nc1`: the enhancement is inactive: 5.86%.
As to `Cc1cc(C)cc(N(C(=O)c2ccccc2)C2CCN(C(=O)OC(C)(C)C)CC2)c1`, the enhancement is inactive: -13.7%.
The result for `O=C(NCC1(N2CCOCC2)CCCCC1)c1cc2ccccc2o1` reads inactive: 8.71%.
Then `CSc1ccccc1C(=O)NCC1(N2CCCCC2)CCCCC1`, with inactive: 6.37%; and `COc1ccc(C(=O)NCC2(N3CCCCC3)CCCCC2)cc1`, with inactive: 5.78%.
Consider `COc1ccc(C(=O)NCC2(N3CCCCC3)CCCCC2)c(OC)c1OC`, for which the enhancement is inactive: -2.17%.
Regarding `CC(C)(C)OC(=O)N1CCC(N(C(=O)c2ccccc2)c2ccc(F)cc2)CC1`, the enhancement is inactive: -5.15%.
For `O=C(NCC1(N2CCCCC2)CCCCC1)c1ccc(=O)[nH]c1`, the enhancement was inactive: 1.52%.
Consider `O=C(NCC1(N2CCCCC2)CCCCC1)c1cccs1`, for which the enhancement is inactive: -2.37%.
Regarding `CCOC(=O)N1CCC(Nc2cccc(C)c2)CC1`, the enhancement was inactive: 6.53%.
Then `COc1cc(C(=O)NCC2(N(C)C)CCCCC2)ccc1OC(F)F`, with inactive: 2.38%.
As to `Cc1ccc(OCC(C)C)c(CN(CCCl)CCCl)c1`, the enhancement was inactive: -9.92%.
In the case of `COc1ccccc1C(=O)NCC1(N2CCOCC2)CCCCC1`, the enhancement is inactive: -6.09%.
As for `CCCCOc1ccc(C(=O)NCC2(N3CCOCC3)CCCCC2)cc1`, the enhancement was inactive: -4.98%.
Then `O=C(NCC1(N2CCCCC2)CCCCC1)c1ccc(F)cc1`, with inactive: -3.22%.
With `CCOC(=O)N1CCC(Nc2ccc(F)cc2)CC1`, the enhancement was inactive: -0.291%.
Then `COc1ccc(NC2CCN(CCc3ccccc3)CC2)c(OC)c1`, with inactive: -0.268%.
Take `O=C(NCC1(N2CCOCC2)CCCCC1)c1ccc(Cl)cc1`: the enhancement was inactive: -4.09%.
The result for `CCOc1ccc(C)cc1CN(CCCl)CCCl` reads inactive: -9.16%.
`O=C(NCC1(N2CCOCC2)CCCCC1)c1cc(=O)[nH]c2ccccc12`: the enhancement is inactive: 1.84%.
The result for `COc1cc(C(=O)NCC2(N3CCCCC3)CCCCC2)ccc1OC(F)F` reads inactive: -5.72%.
Then `COc1ccc(NC2CCN(C(=O)OC(C)(C)C)CC2)cc1`, with inactive: 2.01%; and `CC(C)c1ccc(C(=O)NCC2(N3CCOCC3)CCCCC2)cc1`, with inactive: 9.81%.
Then `CN1CCN(CCOC(=O)C(O)(c2ccccc2)c2ccccc2)CC1`, with inactive: -2.27%; and `O=[N+]([O-])c1cc([N+](=O)[O-])c(NCC2CCS(=O)(=O)C2)c([N+](=O)[O-])c1` (stereo not given), with inactive: 2.41%.
For the compound `O=C(NCC1(N2CCCCC2)CCCCC1)c1cccc(C(F)(F)F)c1`, the enhancement is inactive: 17.1%.
Then `CCCOc1cccc(C(=O)NCC2(N3CCOCC3)CCCCC2)c1`, with inactive: -9.68%; and `CCN1CCC(Nc2ccc(Cl)cc2)CC1`, with inactive: -3.59%.
On to `N#CC1(Nc2ccccc2)CCN(CCc2ccccc2)CC1`, for which the enhancement was inactive: -1.82%.
Then `CSc1ccc(C(=O)NCC2(N3CCOCC3)CCCCC2)cc1`, with inactive: 11.1%; and `CCOc1ccc(C(=O)NCC2(N3CCOCC3)CCCCC2)cc1`, with inactive: -0.118%.
Then `O=C(NCC1(N2CCCCC2)CCCCC1)c1cccc([N+](=O)[O-])c1`, with inactive: 0.918%.
Then `O=C(NCC1(N2CCCCC2)CCCCC1)c1ccc(OC(F)F)cc1`, with inactive: 5.55%.
`CCCCOc1ccccc1C(=O)NCC1(N2CCOCC2)CCCCC1`: the enhancement was inactive: 0.0532%.
On to `O=C(NCC1(N2CCOCC2)CCCCC1)c1ccccc1Br`, for which the enhancement was inactive: -5.24%.
Then `CCCOc1ccc(C(=O)NCC2(N(C)C)CCCCC2)cc1OC`, with inactive: -3.53%.
With `O=C(OC1CN2CCC1CC2)c1ccc([N+](=O)[O-])cc1` (stereo not given), the enhancement is inactive: -0.833%.
`O=C(NCC1(N2CCCCC2)CCCCC1)c1cncc(Br)c1`: the enhancement is inactive: -4.64%.
Then `COc1ccc2c(c1O)-c1c(O)c(OC)cc3c1[C@H](C2)[N+](C)(C)CC3.O=[N+]([O-])c1cc([N+](=O)[O-])c([O-])c([N+](=O)[O-])c1[O-]`, with inactive: -5%; and `COc1cc(OC)c(C(=O)NCC2(N(C)C)CCCCC2)cc1OC`, with inactive: -3.81%; and `CC(C)c1ccc(NC2CCN(C(=O)OC(C)(C)C)CC2)cc1`, with inactive: -1.89%.
The result for `COc1ccc(CN(CCCl)CCCl)cc1Cl` reads inactive: 4.55%.
The result for `CN(C)c1cccc(C(=O)NCC2(N3CCCCC3)CCCCC2)c1` reads inactive: -3.15%.
On to `O=[N+]([O-])c1cc([N+](=O)[O-])c(OC2CCCCC2O)c([N+](=O)[O-])c1` (stereo not given), for which the enhancement was inactive: -5.63%.

The values above are taken from PubChem BioAssay AID493056 (National Center for Advancing Translational Sciences (NCATS), 2011).
